Measurements taken from patent publication US20110262447A1.

Experiments:
[1] = molecular target: mutant p53 R175H core domain (human) (UniProt P04637); test: ELISA, plates coated with recombinant core domain
[2] = molecular target: mutant p53 R175H core domain (human) (UniProt P04637); test: ELISA, R175H core domain heated 30 or 60 min at 37 C with or without 0.4 µM TAR1

O.D. [1]: 0.3 O.D.
fold change of binding in the presence of TAR1 against its absence [2]: 3 fold
Substance: mAb 1620 (antibody)
